In PubChem BioAssay AID2642 (Johns Hopkins Ion Channel Center, 2010) one finds outcome data, which are given here for 24 molecules.

The chains behind the UniProt entries cited, without tags or fusion partners.
UniProt P51787, whole entry: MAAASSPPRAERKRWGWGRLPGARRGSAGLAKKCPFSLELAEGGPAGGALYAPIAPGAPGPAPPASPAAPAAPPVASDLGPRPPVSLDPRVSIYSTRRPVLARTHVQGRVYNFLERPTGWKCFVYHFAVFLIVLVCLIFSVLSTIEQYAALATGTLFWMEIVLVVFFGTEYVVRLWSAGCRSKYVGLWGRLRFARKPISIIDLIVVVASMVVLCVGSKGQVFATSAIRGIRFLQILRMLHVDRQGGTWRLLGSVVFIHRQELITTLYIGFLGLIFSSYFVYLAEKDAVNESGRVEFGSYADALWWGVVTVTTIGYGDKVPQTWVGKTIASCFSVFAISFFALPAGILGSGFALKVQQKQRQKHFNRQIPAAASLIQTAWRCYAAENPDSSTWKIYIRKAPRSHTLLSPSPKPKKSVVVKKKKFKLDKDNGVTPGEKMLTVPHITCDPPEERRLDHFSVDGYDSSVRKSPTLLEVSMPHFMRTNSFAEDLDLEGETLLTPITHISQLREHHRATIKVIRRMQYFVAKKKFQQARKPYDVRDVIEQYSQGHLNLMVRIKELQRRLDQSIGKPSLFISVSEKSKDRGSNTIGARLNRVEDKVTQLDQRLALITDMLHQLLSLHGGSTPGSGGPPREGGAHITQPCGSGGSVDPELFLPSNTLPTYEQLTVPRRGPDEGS

Only a part is listed here, and it is no random draw. Some results for these compounds are left out of this collection, so the calls shown say nothing about other tests. The source made the active and inactive calls.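 How the source made its calls: active means compounds whose thallium flux B-score, printed positive for inhibition, exceeds three library SD while starting fluorescence stays within three; inactive means the rest.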

The experiment addresses Potassium voltage-gated channel subfamily KQT member 1 (Homo sapiens) (UniProt P51787). Kind of experiment: KCNQ1 potassium current blockers – cell-based, thallium flux, high-throughput, primary screen (AID 2642).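 Further: channel opened by potassium depolarization with thallium stimulus after 20 min compound exposure.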 The following applies: CHO-K1 KCNQ1, FluxOR thallium flux fluorescence; at 10 µM.
In the case of `O=C(NCC1(N2CCCCC2)CCCCC1)c1cc(F)c(F)cc1Cl`, the molecule was classed as inactive.

In the case of `C=CCN1CCN(CCOC(=O)C(O)(c2ccccc2)c2ccccc2)CC1`, the molecule was classed as inactive.

Regarding `COc1ccc(C(=O)NCC2(N(C)C)CCCCC2)cc1`, the call was inactive.

In the case of `O=C(NCC1(N2CCCCC2)CCCCC1)c1cccc(Br)c1`, the call was inactive.

Turning to `Cc1cc(C(=O)NCC2(N3CCCCC3)CCCCC2)ccc1[N+](=O)[O-]`, the outcome was inactive.

`CCN1CCCC(OC(=O)C2(O)c3ccccc3C=Cc3ccccc32)C1` (centres undefined): the molecule was classed as inactive.

`CN(C)C1CCCC1OC(=O)C(O)(c1ccccc1)c1ccccc1` (centres undefined): the outcome was inactive.

For the molecule `CN(C)c1ccc(C(=O)NCC2(N(C)C)CCCCC2)cc1`, the molecule was called inactive.

Regarding `Cc1ccccc1C(=O)NCC1(N2CCCCC2)CCCCC1`, the molecule was called inactive.

`COc1cc(SC)ccc1C(=O)NCC1(N(C)C)CCCCC1`: the molecule was classed as inactive.

For the molecule `CCN(CC)CC(C)C(C)OC(=O)C(O)(c1ccccc1)c1ccccc1` (centres undefined), the outcome was inactive.

Take `CC(C)N1C(=O)CC2(CCN(CCOC(=O)C(O)(c3ccccc3)c3ccccc3)CC2)C1=O`: the molecule was classed as inactive.

As to `Cc1ccc(C(=O)NCC2(N3CCCCC3)CCCCC2)cc1`, the outcome was inactive.

As to `O=C(NCC1(N2CCCCC2)CCCCC1)c1cc([N+](=O)[O-])ccc1Cl`, the outcome was inactive.

On to `CN1[C@@H]2CC[C@H]1CC(OC(=O)C(O)(c1ccccc1)c1ccccc1)C2` (some centres undefined), for which the call was inactive.

In the case of `COc1ccc(Br)c(C(=O)NCC2(N3CCCCC3)CCCCC2)c1`, the molecule was called inactive.

For the molecule `CC(C)Oc1ccc(C(=O)NCC2(N(C)C)CCCCC2)cc1`, the call was inactive.

On to `CN(C)c1cccc(C(=O)NCC2(N(C)C)CCCCC2)c1`, for which the call was inactive.

`O=C(OC1CN2CCC1CC2)C(CO)(c1ccccc1)c1ccccc1` (centres undefined): the outcome was inactive.

For `COc1ccc(Cl)cc1C(=O)NCC1(N(C)C)CCCCC1`, the outcome was inactive.

In the case of `COc1cccc(C(=O)NCC2(N3CCCCC3)CCCCC2)c1`, the outcome was inactive.

`O=C(NCC1(N2CCCCC2)CCCCC1)c1cccc(Cl)c1`: the outcome was inactive.

As to `CN(C)C1(CNC(=O)c2ccc(Br)cc2)CCCCC1`, the molecule was classed as inactive.

With `COc1cc(C(=O)NCC2(N(C)C)CCCCC2)c([N+](=O)[O-])cc1OC`, the result was inactive.
